Values of other authors in patent US20070025986A1, “Modulation of HCN channels by second messengers” (priority 2003, published 2007).

Test system: native pacemaker channels (IH)
Conditions: cited from earlier work

In the case of `CCCN1CCC[C@@H]2Cc3n[nH]cc3C[C@H]21` [quinpirole], the “Δ V1/2” value is given as −9 mV ORN; −17 mV ROD.
